According to patent US10188770B2, “Dental implant having enhanced early stability and method for manufacturing same” (OSSTEMIMPLANT CO., LTD., priority 2014, dated 2019):

System: implant-bone interface
Test: Removal torque of coated implants just after coating and after 3-year storage
Format: in vivo
Conditions: storage period 3 year; implants coated with 10 ml solution of 40 μg bisphosphonate and 1 μg rhBMP-2
Experimental: In order to confirm the long-time storage stabilities of implant, osseointegration at implant-bone interface were measured via removal torque.
Each dental implant was coated with various bisphosphonates as described example 1 and its removal torque was measured just after coating step and 3-year self-storage, respectively.
Similarly, osseointegration at implant-bone interface were measured via removal torque for dental implants wherein the osteoclast activity inhibitor coating film further comprises a bone growth factor (BMP-2) as shown in Table 2.

O=P(O)(O)C(O)(Cc1cccnc1)P(=O)(O)O [Resendronate]
Removal torque: 108.1 ± 11.6
